In US11994512B2, “Single-cell genomic methods to generate ex vivo cell systems that recapitulate in vivo biology with improved fidelity” (Massachusetts Institute of Technology, priority 2018, dated 2024):

Tested on: intracellular proteome of ENR+CD and ENR organoids
Test: LC-MS/MS TMT proteomics of ENR+CD versus ENR organoids
Type: cell-based, C57BL/6 mice
Text: Because PCs are highly secretory, protein-rich cells, Applicants sought to assess the total intracellular proteome between conditions through liquid chromatography mass spectrometry (LC-MS/MS)-based proteomics. Applicants quantified relative protein abundance across eight samples using isobaric mass tag labeling from four ENR and four ENR+CD samples (M1-1 through M2-2, first digit denotes biological donor, second digit denotes technical replicate) (FIG. 3A). Samples were processed and analyzed in a single 10-plex by LC-MS/MS (FIG. 9A).
To affirm the reproducibility of the associated proteins in the ENR+CD-enriched proteome, Applicants performed relative quantification within differentiation sets.
Mass spectrometry proteomics sample preparation, sequencing, and quantification. Organoid cell pellets were isolated from Matrigel with mechanical dissociation and washed (cold PBS 5X) to remove residual extracellular protein. Proteins were extracted from cell pellets with 8 M urea (Sigma), reduced with 5 mM DTT (Thermo Fisher Pierce) for 45 minutes, alkylated with 10 mM IAA (Sigma) for 45 minutes in the dark, and double digested with both Lysyl Endopeptidase “LysC” (Wako) and trypsin (Promega) overnight at RT. A small aliquot of cellular lysate was removed from each sample for protein quantification via the Pierce™ BCA Protein Assay Kit (Pierce). After proteolytic digestion, the samples were quenched using formic acid to a final concentration of 1.0% and subsequently desalted on 10 mg OASIS HLB solid phase columns (Waters).
The peptides were labeled with TMT-10 isobaric mass tag reagent according to manufacturer's instructions (ThermoFisher Scientific). The peptides were labeled at a 1:8 ratio of peptide to TMT reagent, followed by 1-hour incubation at RT with bench top shaking at 850 rpm. After incubation, a […] of labeled tryptic peptide was removed from each labeled condition, desalted with C18 stage tips, and analyzed via LC-MS/MS using a Thermo Fisher Q Exactive Plus Hybrid Mass Spectrometer (QE-Plus) coupled to a Thermo Fisher EASY-nLC 1000 liquid chromatograph to ensure isobaric label incorporation >95%. An additional 1.0 μg of labeled tryptic peptide was removed from each channel, mixed together, desalted on a C18 stage tip, and analyzed via LC-MS to ensure equal relative protein loads. During these quality control steps, the labeled peptides were stored, unquenched at −80° C.

**Q.** With P63166 as the substance, how does the “Average logFC” value (protein abundance, ENR+CD versus ENR organoids, aggregate of the four sample pairs) read?
**A.** −1.394

**Q.** And the “M1-1 Log2 Median Normalized” value (protein abundance, ENR+CD versus ENR organoids, replicate M1-1, log2 ratio)?
**A.** −1.207

**Q.** What about the “M1-2 Log2 Median Normalized” value (protein abundance, ENR+CD versus ENR organoids, replicate M1-2, log2 ratio) of the same substance?
**A.** −1.094

**Q.** What about the “M2-1 Log2 Median Normalized” value (protein abundance, ENR+CD versus ENR organoids, replicate M2-1, log2 ratio) of the same substance?
**A.** −1.7425

**Q.** What about the “M2-2 Log2 Median Normalized” value (protein abundance, ENR+CD versus ENR organoids, replicate M2-2, log2 ratio) of the same substance?
**A.** −1.532

**Q.** And the change (up = enriched in ENR+CD, down = enriched in ENR, FDR<0.05 and log fold change cut-off)?
**A.** down
